The values below come from patent publication US7049289B1, “Labelled glutamine and lysine analogues” (Amersham PLC, priority 1998, dated 2006).

The target of experiment [1] is T1, fibrin (in vitro human plasma clot) (Homo sapiens, UniProt P02671+P02675+P02679).
T1 construct: about 400 μl of human plasma containing the radiolabelled substrate; from tissue; host or cells: human plasma, clotted in vitro with added thrombin and calcium chloride
T1 sequence (P02671 20-644 isoform P02671-2 limits assumed): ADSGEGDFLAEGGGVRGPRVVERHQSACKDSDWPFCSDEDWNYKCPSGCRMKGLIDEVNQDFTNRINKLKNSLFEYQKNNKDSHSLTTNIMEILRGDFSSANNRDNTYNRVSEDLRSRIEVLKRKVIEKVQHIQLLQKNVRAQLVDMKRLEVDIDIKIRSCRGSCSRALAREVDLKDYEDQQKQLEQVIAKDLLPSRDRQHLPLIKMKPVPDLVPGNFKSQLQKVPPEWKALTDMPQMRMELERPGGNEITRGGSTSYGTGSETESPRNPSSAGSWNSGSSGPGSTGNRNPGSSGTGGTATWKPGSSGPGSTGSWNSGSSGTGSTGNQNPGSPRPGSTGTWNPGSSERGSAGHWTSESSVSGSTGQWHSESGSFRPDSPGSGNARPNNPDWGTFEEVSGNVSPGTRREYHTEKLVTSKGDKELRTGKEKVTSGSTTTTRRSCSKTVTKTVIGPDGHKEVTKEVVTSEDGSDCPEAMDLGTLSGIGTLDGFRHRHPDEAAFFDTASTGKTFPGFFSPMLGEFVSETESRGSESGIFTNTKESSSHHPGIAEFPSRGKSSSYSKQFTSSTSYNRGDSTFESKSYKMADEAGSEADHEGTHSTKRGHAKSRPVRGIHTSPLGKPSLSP
T1 sequence (P02675 45-491 limits assumed): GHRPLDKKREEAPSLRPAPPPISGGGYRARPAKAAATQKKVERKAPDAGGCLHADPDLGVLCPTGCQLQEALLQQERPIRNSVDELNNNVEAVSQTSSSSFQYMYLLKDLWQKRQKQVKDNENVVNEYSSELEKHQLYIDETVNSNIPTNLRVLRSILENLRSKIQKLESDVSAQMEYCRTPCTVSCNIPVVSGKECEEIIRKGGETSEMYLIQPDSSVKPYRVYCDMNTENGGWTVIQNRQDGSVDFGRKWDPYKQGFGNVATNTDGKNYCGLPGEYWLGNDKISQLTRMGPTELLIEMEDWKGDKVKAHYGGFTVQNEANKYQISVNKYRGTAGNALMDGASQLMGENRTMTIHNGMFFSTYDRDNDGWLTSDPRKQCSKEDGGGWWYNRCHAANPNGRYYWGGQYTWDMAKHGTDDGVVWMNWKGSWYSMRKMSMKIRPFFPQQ
T1 sequence (P02679 27-437 isoform P02679-2 limits assumed): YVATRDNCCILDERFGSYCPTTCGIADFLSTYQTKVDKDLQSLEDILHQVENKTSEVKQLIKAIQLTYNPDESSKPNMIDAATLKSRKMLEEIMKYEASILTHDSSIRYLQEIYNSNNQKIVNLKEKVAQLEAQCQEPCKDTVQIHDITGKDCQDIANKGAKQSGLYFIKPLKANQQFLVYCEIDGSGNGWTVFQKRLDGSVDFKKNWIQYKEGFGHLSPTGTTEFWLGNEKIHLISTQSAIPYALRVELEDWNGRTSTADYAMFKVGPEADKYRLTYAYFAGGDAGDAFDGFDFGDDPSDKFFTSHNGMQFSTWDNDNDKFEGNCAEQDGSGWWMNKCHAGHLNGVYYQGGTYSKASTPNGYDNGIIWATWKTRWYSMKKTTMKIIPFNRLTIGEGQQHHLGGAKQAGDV
Nature of the experiment: Incorporation into human plasma clots in vitro. The experiment is classed as biochemical. As to the method: Incorporation of radiolabelled substrates into fibrin was investigated by induction of an in vitro human plasma clot in the following manner. To a siliconised 5 ml glass vial was added, (a) 800 μl of Tris(hydroxymethyl)aminomethane buffered saline pH 7.5 containing calcium chloride (50 mM Tris, 150 mM sodium chloride, 4 mM calcium chloride.), (b) about 40 μl of physiological salt solution containing 100 units of thrombin per ml, (c) about 400 μl of human plasma containing the radiolabelled substrate at a concentration of typically 10 kBq/ml. To aid induction of clot a roughened glass rod was added to the reaction vial. Control vials were prepared similarly but with the omission of thrombin and calcium chloride.
After incubation of the test solution at ambient laboratory temperature (ca. 20° C.) for 60 minutes the reaction was discontinued with the addition of about 400 μl of a cold solution of 33.5 mM ethylenediaminetetra-acetic acid disodium salt. Clots were separated from serum by vacuum filtration onto […] nitrocellulose filters (pre-soaked in 1.5% BSA/tris(hydroxymethyl)aminoethae buffered saline pH 7.5 containing 0.1% Tween 20) and washed with about 2×10 ml of tris(hydroxymethyl)aminomethane buffered saline pH 7.5 containing Tween 20 to a final concentration of 0.1% v/v. The proportion of total radioactivity was calculated by counting in suitable detection apparatus.
The fraction of radioactivity retained on the filter, after subtraction of the non-specific binding determined from the control, is a measure of incorporation into the filtered clots.

A short description of experiment [2]: Incorporation into clots induced in a rat model (rat inferior vena cava model). The experiment is classed as in vivo, rat (Male Wistar). As to conditions: for % id/g (clot) / Rel. Conc. (cpm/g of clot by dose/g animal): sacrificed after 60 min. As to the method:
The rats (Male Wistar, 250–350 g) were anaesthetised with 15% urethane. After laparotomy, the vena cava was isolated and freed of surrounding fat tissue. […] The average weight of the clots formed in this model was around 27 mg, n=32, (5–50 mg range). The compounds were injected 5 min (fresh clot) and 60 min (aged clot) post-induction. After 60 min the animals were sacrificed and the clot removed, weighed and counted. Other tissues e.g. blood, lung, heart, were also dissected and counted. The uptake of tracer into the clot was determined as the relative concentration (cpm/g of clot by dose/g animal) and clot to background tissue.

Setting [3] is: Aged Clots: injected 60 min post-induction.
Setting [4] is: Fresh Clots: injected 5 min post-induction.

For the substance “Ac-YEVHHQKLVFFG-Pn216 (N-acetyl; C-terminal Pn216 chelator, 99mTc) [^99mTc-Cmpd 49]”, the “% specific uptake” value in experiment [1] (% retained (with thrombin) - % retained (no thrombin)) was 31.5%. Also, the “% retained (no thrombin)” value in experiment [1] (control without thrombin and calcium chloride (non-specific binding)) was 1.6%. In experiment [1] (human plasma clot, with thrombin, 60 minutes, ca. 20° C.), the “% retained (with thrombin)” value is on record as 33.1%. In experiment [2] (Aged Clots), this substance had a Clot/blood of 4, a Clot/heart of 29, a Clot/liver of 19 and a Clot/lung of 9. In experiment [2] (setting [3]), the “% id/g (clot)” value worked out at 1.2 ± 0.5 % id/g and the “Rel. Conc. (cpm/g of clot by dose/g animal)” value amounted to 3.9 ± 1.6. Moreover, in experiment [2] (Fresh Clots), the Clot/blood is reported as 4, the Clot/heart was 16, the Clot/liver is listed as 4 and the Clot/lung came to 6. Further, in experiment [2] (setting [4]), the “% id/g (clot)” value amounted to 2.6 ± 1.1 % id/g and the “Rel. Conc. (cpm/g of clot by dose/g animal)” value came to 8.5 ± 3.7.
